# Literature values, collected in PubChem BioAssay AID1811 (Shanghai Institute of Organic Chemistry, 2009).
# This is one part of the list. Active and inactive are the calls of the source. Where no limit is named, active and inactive come without a cut-off here.
# Test system: leucine-specific binding protein
# Experiment: PubChem AID 1811
# Conditions: PDB complex binding affinities from literature
smiles,measurement,value
CC(C)C[C@H](N)C(=O)O,outcome,active
